According to patent US10011874B2, “Androgen receptor mutation” (NOVARTIS AG, priority 2013, dated 2018):

Assays:
[1] = test system: F877L/T878A mutant AR (KLK3, NKX3-1 expression); assay: qPCR of AR target genes in LNCaP engineered to express F877L/T878A AR; type: cell-based; settings: 10% FCS; 10 μM; FIG. 5a, FIG. 15
[2] = test system: AR localization in T878A expressing LNCaP line; assay: Nuclear/cytoplasmic fractionation of exogenous AR, T878A line; type: cell-based; settings: 10 μM, 24 h
[3] = test system: LNCaP clone #1 (AR-F877L-bearing) tumors; settings: clone #1 xenograft mice; 30 mg/kg daily

With CNC(=O)c1ccc(N2C(=S)N(c3ccc(C#N)c(C(F)(F)F)c3)C(=O)C2(C)C)cc1F [MDV3100, 4-{3-[4-cyano-3-(trifluoromethyl)phenyl]-5,5-dimethyl-4-oxo-2-sulfanylideneimidazolidin-1-yl}-2-fluoro-N-methylbenzamide] the “AR pathway activity in presence of compound” value [1] was “significant rescue of AR pathway activity”, the “nuclear localization of AR” value [2] was “significantly impaired” and the “body weight during treatment period” value [3] was “No significant body weight loss”.
